Measured values published in patent publication US8969304B2, “Compositions and methods for the prevention of cancer in high risk patients” (The Institute for Cancer Research, priority 2010, dated 2015).

Chains of the proteins cited; added tags and fusions are not shown. Residues count along the entry.
UniProt P30730, 27-700: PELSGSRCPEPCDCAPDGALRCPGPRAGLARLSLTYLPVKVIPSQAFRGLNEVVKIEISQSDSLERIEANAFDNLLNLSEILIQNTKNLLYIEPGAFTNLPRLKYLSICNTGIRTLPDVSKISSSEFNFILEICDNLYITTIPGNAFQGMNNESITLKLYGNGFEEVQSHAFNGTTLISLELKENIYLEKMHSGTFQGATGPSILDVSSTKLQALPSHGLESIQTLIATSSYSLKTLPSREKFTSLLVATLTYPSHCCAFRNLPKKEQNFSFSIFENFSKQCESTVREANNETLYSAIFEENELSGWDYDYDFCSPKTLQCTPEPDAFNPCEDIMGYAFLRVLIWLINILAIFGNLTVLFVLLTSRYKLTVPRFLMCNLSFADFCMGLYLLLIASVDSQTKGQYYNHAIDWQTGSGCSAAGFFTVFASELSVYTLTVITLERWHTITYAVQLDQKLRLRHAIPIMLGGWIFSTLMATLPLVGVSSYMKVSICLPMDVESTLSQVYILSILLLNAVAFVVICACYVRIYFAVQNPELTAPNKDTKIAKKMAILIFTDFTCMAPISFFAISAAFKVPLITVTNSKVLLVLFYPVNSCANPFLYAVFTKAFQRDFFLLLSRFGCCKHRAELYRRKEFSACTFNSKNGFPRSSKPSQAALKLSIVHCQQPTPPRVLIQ
UniProt P22888, 27-699: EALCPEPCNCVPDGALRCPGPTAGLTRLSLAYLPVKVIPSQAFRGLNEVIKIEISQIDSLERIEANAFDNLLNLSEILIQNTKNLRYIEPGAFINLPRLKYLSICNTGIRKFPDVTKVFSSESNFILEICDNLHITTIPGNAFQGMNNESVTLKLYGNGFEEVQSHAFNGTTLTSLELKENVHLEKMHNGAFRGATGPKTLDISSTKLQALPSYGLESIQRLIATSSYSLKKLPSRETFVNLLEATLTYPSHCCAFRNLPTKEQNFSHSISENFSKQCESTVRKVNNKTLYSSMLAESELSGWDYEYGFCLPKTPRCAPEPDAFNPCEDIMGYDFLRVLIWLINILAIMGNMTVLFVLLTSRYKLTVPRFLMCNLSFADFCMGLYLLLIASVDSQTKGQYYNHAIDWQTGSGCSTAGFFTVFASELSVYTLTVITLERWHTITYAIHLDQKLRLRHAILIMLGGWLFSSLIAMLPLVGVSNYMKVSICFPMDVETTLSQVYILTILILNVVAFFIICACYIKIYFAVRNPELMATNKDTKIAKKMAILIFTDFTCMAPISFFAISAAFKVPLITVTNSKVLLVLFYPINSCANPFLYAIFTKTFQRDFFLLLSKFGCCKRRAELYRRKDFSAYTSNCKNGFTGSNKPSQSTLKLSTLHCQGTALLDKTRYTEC

Key:
CXCR1 = assay: real time RT-PCR, CXCR1 gene expression; format: cell-based, human; settings: MCF-10F, all along the treatment
GPR30 = assay: real time RT-PCR, GPR30 gene expression; format: cell-based, human; settings: treated MCF-10F cells, data not shown
[1] = test system: E2-transformed MCF-10F cells; assay: solid mass formation and branching of E2-transformed MCF-10F cells in collagen; format: cell-based, human; settings: 2.5 mcg/ml r-hCG
[2] = test system: mammary gland of virgin rats; settings: cited from earlier work
LH/hCG-R in MA-10 cells = target: T1, LH/hCG-R in MA-10 cells (Mus musculus, UniProt P30730); assay: intracellular cAMP production (enzyme immunoassay); format: cell-based; settings: 2.5 μg r-hCG/ml or 20 μM PPFC-879-81-95
T1 construct: endogenous in cells; host or cells: MA-10 mouse Leydig tumor cells

FAK/AKT/FOXO3A pathway = assay: FAK, AKT and FOXO3A expression (unpublished data); format: cell-based; settings: previous results
LH/hCG-R in MCF10F cells = target: T2, LH/hCG-R in MCF10F cells (Homo sapiens, UniProt P22888); assay: intracellular cAMP production (enzyme immunoassay); format: cell-based; settings: 2.5 μg r-hCG/ml or 20 μM PPFC-879-81-95
T2 construct: For verifying the presence and functionality of the receptor in normal and transformed MCF10F cells; endogenous in cells; host or cells: MCF10F human breast epithelial cells

breast tissue = assay: pilot study in asymptomatic nulliparous BRCA1 carriers, gene expression in breast epithelial cells; format: in vivo, human; settings: 250 μg r-hCG sc on alternate days, three months; two volunteers; preliminary
LHCGR = assay: real time RT-PCR, LHCGR gene expression; format: cell-based, human; settings: MCF-10F, from the first day of treatment on
[3] = virgin rats, validated by real time RT-PCR

In the case of “r-hCG: recombinant human chorionic gonadotropin (r-hCG; Ovidrel)”, the CXCR1 expression (CXCR1) is reported as “down-regulated”, the “GPR30 mRNA expression” value (GPR30) is reported as “undetectable or very low values” and the “number of secondary and tertiary branching in the ductular structures” value [1] is reported as “increased the number of secondary and tertiary branching”. The “number of solid masses” value ([1]; in comparison with the controls) was “significant decrease in the number of solid masses”, the “susceptibility of the mammary gland to carcinogenesis” value ([2]; 21 day-treatment of virgin rats before carcinogen (DMBA) administration) was “reverted” and the “mediators of the preventive effect in the mammary gland” value ([2]; rats, hCG treatment) was “induction of differentiation of the mammary gland, depression of DNA synthesis, and changes in the genomic profile of the gland”. The “expression of CTBP1, KDM1, MLL5 and KDM6B” value [2, 3] was “upregulated”, the “expression of RPS6KA3 and BMI1” value [2, 3] was “downregulated” and the “intracellular cAMP production” value (LH/hCG-R in MA-10 cells) was “time-dependent increase”. For the same substance, the “FAK and AKT” value (FAK/AKT/FOXO3A pathway) was “decrease”, the FOXO3A expression (FAK/AKT/FOXO3A pathway) was “up-regulate” and the “intracellular cAMP production” value (LH/hCG-R in MCF10F cells) was “time-dependent increase”. For the same substance, the “genomic signature of the breast tissue” value (breast tissue) was “exhibits a shift of the same group of genes detected in parous women” and the “hCG receptor (LHCGR) gene expression” value (LHCGR) was “up-regulated”.
